Experimental data: US20240280594A1, “MULTIWELL PLATE LIPOPHILICITY ASSAY” (Hoffmann-La Roche Inc., priority 2021, published 2024)

Assay: CAMDIS Filter Bottom Plate (CAMDIS FBP) octanol/buffer log D
Conditions: pH 7.4

## Progesterone
  CAMDIS FBP LogD: 3.62
